Measurements: patent US11596639B2, “Substituted indole Mcl-1 inhibitors” (Vanderbilt University, priority 2016, dated 2023)

By UniProt entry, the sequences of proteins in these tests, tags left out. Residues count along the entry.
UniProt Q07820, 172-327: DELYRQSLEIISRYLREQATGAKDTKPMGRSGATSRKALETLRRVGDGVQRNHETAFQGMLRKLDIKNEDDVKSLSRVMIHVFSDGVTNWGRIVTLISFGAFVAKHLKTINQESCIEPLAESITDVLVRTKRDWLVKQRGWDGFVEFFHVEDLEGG

Target: Mcl-1 (Homo sapiens (Human), UniProt Q07820)
Assay: TR-FRET binding assay, FITC-Bak peptide and MBP-tagged Mcl-1
Conditions: read-out: Ki for Inhibition of Mcl-1 by TR-FRET assay

| SMILES | Ki [nM] |
| --- | --- |
| COc1ccc(N2C[C@@H](C)n3c(c(CCCOc4cc(C)c(Cl)c(C)c4)c4ccc(Cl)c(-c5c(C)nn(C)c5C)c43)C2=O)c2c1c(C(=O)O)cn2Cc1cccc(C)n1 [Example 621, (R)-7-(7-chloro-10-(3-(4-chloro-3,5-dimethylphenoxy)propyl)-4-methyl-1-oxo-6-(1,3,5-trimethyl-1H-pyrazol-4-yl)-3,4-dihydropyrazino[1,2-a]indol-2(1H)-yl)-4-methoxy-1-((6-methylpyridin-2-yl)methyl)-1H-indole-3-carboxylic add] | < 0.2 |
| COc1ccc(N2C[C@@H](C)n3c(c(CCCOc4cc(C)c(Cl)c(C)c4)c4ccc(Cl)c(-c5c(C)nn(C)c5C)c43)C2=O)c2c1c(C(=O)O)cn2Cc1cccc(C)n1 [Example 622, (R)-7-(7-chloro-10-(3-(4-chloro-3,5-dimethylphenoxy)propyl)-4-methyl-1-oxo-6-(1,3,5-trimethyl-1H-pyrazol-4-yl)-3,4-dihydropyrazino[1,2-a]indol-2(1H)-yl)-4-methoxy-1-((6-methylpyridin-2-yl)methyl)-1H-indole-3-carboxylic acid] | 0.76 |
